The values below come from ChEMBL document CHEMBL4825693, “Discovery of novel N-sulfonamide-tetrahydroisoquinolines as potent retinoic acid receptor-related orphan receptor γt agonists” (Eur J Med Chem, 2021).

For the assay, the target named is T1, Nuclear receptor ROR-gamma (Mus musculus) (UniProt P51450).
T1 sequence (whole entry): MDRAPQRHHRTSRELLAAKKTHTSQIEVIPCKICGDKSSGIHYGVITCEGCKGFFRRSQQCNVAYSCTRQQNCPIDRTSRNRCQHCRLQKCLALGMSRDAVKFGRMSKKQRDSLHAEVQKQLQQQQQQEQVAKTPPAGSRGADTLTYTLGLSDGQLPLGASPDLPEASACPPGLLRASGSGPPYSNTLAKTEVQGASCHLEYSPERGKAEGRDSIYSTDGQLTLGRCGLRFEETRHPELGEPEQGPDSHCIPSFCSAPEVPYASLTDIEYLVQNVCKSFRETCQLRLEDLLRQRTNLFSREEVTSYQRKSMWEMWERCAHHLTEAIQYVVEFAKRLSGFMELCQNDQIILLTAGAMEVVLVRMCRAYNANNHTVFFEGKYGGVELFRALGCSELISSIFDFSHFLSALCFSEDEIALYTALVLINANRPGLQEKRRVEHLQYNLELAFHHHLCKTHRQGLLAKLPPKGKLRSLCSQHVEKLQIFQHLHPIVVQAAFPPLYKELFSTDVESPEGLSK
Description: Agonist activity at RORgammat in C57 mouse CD4+ T cells assessed as induction of Th17 cells differentiation by measuring increase in IL17 production measured after 4 days by flow cytometry analysis relative to control. The assay is classed as cell-based. To be noted: CD4+ve Th, filed as agonist, time 4.0 day.

Each structure is given as a SMILES string.

`CC(=O)N1CCN(c2ccc3c(c2)CCN(S(=O)(=O)N(C)Cc2ccccc2C(F)(F)F)C3)CC1`: the max activation turned out to be 122%.
